From patent publication US7947666B2, “2-methylene-(20S,25S)-19,26-dinor-vitamin D analogs” (Wisconsin Alumni Research Foundation, priority 2007, dated 2011)

By UniProt entry, the sequences of proteins in these tests, tags left out. Where a name states a change or a piece, a line headed by the entry shows the natural chain unless it says otherwise.
UniProt P13053: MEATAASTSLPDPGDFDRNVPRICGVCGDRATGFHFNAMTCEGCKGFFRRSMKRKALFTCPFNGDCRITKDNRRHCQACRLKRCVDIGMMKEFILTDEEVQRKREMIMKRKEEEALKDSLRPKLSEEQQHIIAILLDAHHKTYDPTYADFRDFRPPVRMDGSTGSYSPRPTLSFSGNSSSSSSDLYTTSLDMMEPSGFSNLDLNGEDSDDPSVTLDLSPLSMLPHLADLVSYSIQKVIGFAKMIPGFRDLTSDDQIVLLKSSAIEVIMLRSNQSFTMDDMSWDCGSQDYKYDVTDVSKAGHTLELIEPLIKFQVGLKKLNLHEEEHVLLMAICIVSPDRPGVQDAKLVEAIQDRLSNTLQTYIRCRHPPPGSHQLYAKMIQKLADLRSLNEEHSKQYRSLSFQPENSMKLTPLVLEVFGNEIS

Assays:
[1] = target: full-length recombinant rat vitamin D receptor (Rattus norvegicus, UniProt P13053); settings: FIG. 1
HL-60 cells = assay: HL-60 differentiation (nitro blue tetrazolium reduction); format: cell-based, human; settings: compared to 1,25(OH)2D3
Method: The study drugs were dissolved in ethanol and the concentrations determined using UV spectrophotometry. Serial dilutions were prepared so that a range of drug concentrations could be tested without changing the final concentration of ethanol (≦0.2%) present in the cell cultures.
Human promyelocytic leukemia (HL60) cells were grown in RPMI-1640 medium containing 10% fetal bovine serum. The cells were incubated at 37° C. in the presence of 5% CO2.
HL60 cells were plated at 1.2×10^5 cells/ml. Eighteen hours after plating, cells in duplicate were treated with drug. Four days later, the cells were harvested and a nitro blue tetrazolium reduction assay was performed (Collins et al., 1979; J. Exp. Med. 149:969-974). The percentage of differentiated cells was determined by counting a total of 200 cells and recording the number that contained intracellular black-blue formazan deposits. Verification of differentiation to monocytic cells was determined by measuring phagocytic activity (data not shown).

C=C1[C@H](O)CC(=C/C=C2\CCC[C@@]3(C)C2CC[C@@H]3[C@@H](C)CCC[C@H](C)O)C[C@H]1O (stereo partly drawn) [A4, 2-methylene-(20S,25S)-19,26-dinor-1α,25-dihydroxyvitamin D3]
affinity to the nuclear vitamin D receptor compared to 1,25-(OH)2D3 [1]: nearly the same affinity
potency on HL-60 cell differentiation relative to 1,25(OH)2D3 (times more potent) (HL-60 cells): about 10 times
